Data from paper PMC2680354 (Molecular cell, 2008).

B1: GST-WASP VCA (other)
chain: MSPILGYWKIKGLVQPTRLLLEYLEEKYEEHLYERDEGDKWRNKKFELGLEFPNLPYYIDGDVKLTQSMAIIRYIADKHNMLGGCPKERAEISMLEGAVLDIRYGVSRIAYSKDFETLKVDFLSKLPEMLKMFEDRLCHKTYLNGDHVTHPDFMLYDALDVVLYMDPMCLDAFPKLVCFKKRIEAIPQIDKYLKSSKYIAWPLQGWQATFGGGDHPPKGGRGALLDQIRQGIQLNKTPGAPESSALQPPPQSSEGLVGALMHVMQKRSRAIHSSDEGEDQAGDEDEDDEWDD
B2: GST-WAVE1 VCA (other)
chain: MSPILGYWKIKGLVQPTRLLLEYLEEKYEEHLYERDEGDKWRNKKFELGLEFPNLPYYIDGDVKLTQSMAIIRYIADKHNMLGGCPKERAEISMLEGAVLDIRYGVSRIAYSKDFETLKVDFLSKLPEMLKMFEDRLCHKTYLNGDHVTHPDFMLYDALDVVLYMDPMCLDAFPKLVCFKKRIEAIPQIDKYLKSSKYIAWPLQGWQATFGGGDHPPKKRHPSTLPVISDARSVLLEAIRKGIQLRKVEEQREQEAKHERIENDVATILSRRIAVEYSDSEDDSEFDEVDWLE

Columns and labels:
Arp2/3 complex [1] = test: AUC
Arp2/3 complex [2] = test: fluorescence polarisation

| Binder | stoichiometry N (Arp2/3 complex [1]) | fold increase in affinity of the GST-VCA dimer over the VCA monomer (Arp2/3 complex [2]) [fold] |
| --- | --- | --- |
| B1 | 2 GST-WASP VCA chains per Arp2/3 complex | 100 |
| B2 |  | 150 |
